This note sets out measurements from PubChem BioAssay AID540336 (Broad Institute, 2011).

The chains behind the UniProt entries cited, without tags or fusion partners.
UniProt Q5AAJ8, whole entry: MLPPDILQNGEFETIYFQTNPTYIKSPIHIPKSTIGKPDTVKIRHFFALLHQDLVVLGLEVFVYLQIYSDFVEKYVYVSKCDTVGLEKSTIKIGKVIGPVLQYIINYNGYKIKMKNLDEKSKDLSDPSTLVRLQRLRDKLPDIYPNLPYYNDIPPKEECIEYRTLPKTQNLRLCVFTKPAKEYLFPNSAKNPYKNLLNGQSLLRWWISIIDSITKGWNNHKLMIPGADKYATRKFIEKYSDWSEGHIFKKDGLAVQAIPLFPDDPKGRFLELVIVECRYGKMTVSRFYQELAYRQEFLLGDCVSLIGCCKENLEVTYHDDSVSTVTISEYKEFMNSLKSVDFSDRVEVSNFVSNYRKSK

The list shows a part of the results, in another mix than the full data. Activity calls are given as the source filed them.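 How the source made its calls: active means inhibition of at least 50% in every replicate; inconclusive means best replicate reaches 50% inhibition but some replicates fall short; inactive means the rest.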

The assay concerns the target Histone acetyltransferase RTT109 (Candida albicans (strain SC5314 / ATCC MYA-2876)) (UniProt Q5AAJ8). In words: inhibitors of C. albicans Rtt109/Vps75 HAT, primary screen, biochemical, ThioGlo CoA-SH fluorescence, plate reader (AID 540336). As to conditions: purified Rtt109/Vps75, ThioGlo CoA-SH fluorescence, 4 h; at 34.9 µM; active compounds read high.
In the case of `CCC(=O)N(c1ccccc1)C1(COC)CCN(CCn2nnn(CC)c2=O)CC1`, the inhibition was inactive: 3.04%.
Consider `CCC(=O)N(c1ccccc1)C1(COC)CCN(CCc2cccs2)CC1`, for which the inhibition was inactive: 13.6%.

As usually defined, the inhibition is the percentage by which the read-out fell short of the control.
